Screens as filed in PubChem.
Compounds with a hit are over-represented: about 0.46% of the library has one in this group of screens.
HCMV UL50-53 inh = inhibitors of HCMV UL50-UL53 interaction, biochemical, HTRF. normalized percent inhibition. AID 1918969, 2023. inhibition, % (no concentration beside the values). 190,000 tested, 0.15% active; in the data active = inhibition above about 27%, passing the limit was not always enough
GIV Gai3 FP = inhibitors of GIV GBA-motif binding to rat Galpha-i3. actives 0.42% (n = 210,000). Galpha-i3/FITC-GIV peptide fluorescence polarization, 90 min; active compounds read low; scaled: aluminum fluoride 0%, vehicle 100%. AID 1224905. percent of control (FP), % (no concentration beside the values). P08753;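 active means replicate mean at 85% of control or lower, very high polarization wells dropped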;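 further: wells of about 15 µL received 100 nL stock; the first replicate is given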
Large screens that a line does not name were inactive.

N#Cc1c(N)n(Cc2ccccc2)c2nc3ccccc3nc12	none (no result: GIV Gai3 FP)
Cc1ccc(S(=O)(=O)Nc2c(C#N)c3nc4ccccc4nc3n2Cc2ccccc2)cc1	HCMV UL50-53 inh 77 (no result: GIV Gai3 FP)
N#Cc1c(NS(=O)(=O)c2ccccc2)n(-c2ccccc2)c2nc3ccccc3nc12	none (no result: GIV Gai3 FP)
C=CCn1c(NS(=O)(=O)c2ccccc2)c(C#N)c2nc3ccccc3nc21	HCMV UL50-53 inh 65 (no result: GIV Gai3 FP)
Cc1ccc2oc(N3CCN(C(=O)Cc4ccccc4)CC3)nc2n1	none
O=C(O)C(Cc1ccccc1)N1C(=O)/C(=C/C=C/c2ccco2)SC1=S (centres undefined)	HCMV UL50-53 inh 70
O=C1S/C(=C\C=C\c2ccco2)C(=O)N1c1ccccc1	none
CCCN1C(=O)/C(=C/c2ccc(CC)cc2)NC1=S	none (no result: HCMV UL50-53 inh)
CCCN1C(=O)/C(=C/c2cc(Br)c(O)c(OCC)c2)NC1=S	GIV Gai3 FP -83
Cc1n[nH]c(C)c1N1C(=O)c2cccc3c(N4CCCCC4)ccc(c23)C1=O	GIV Gai3 FP -6.8
O=C1c2cccc3c(N4CCOCC4)ccc(c23)C(=O)N1c1ccccc1	none
O=S(=O)(CC(O)(c1ccccc1)c1ccccc1)c1cccc(C(F)(F)F)c1	none
Cc1c(/C=C2\SC(c3ccccc3)=NC2=O)c(=O)n(-c2ccccc2)n1C	GIV Gai3 FP -4.0 (no result: HCMV UL50-53 inh)
O=C1N=C(c2ccccc2)S/C1=C\c1cccs1	none (no result: HCMV UL50-53 inh)
O=C(Cn1c(=O)oc2cc(S(=O)(=O)N3CCc4ccccc43)ccc21)NC1CCCCCC1	none
Oc1c(C=NC2CCCCC2)[nH]c2ccc(Br)c(Cl)c12	GIV Gai3 FP -64 (no result: HCMV UL50-53 inh)
Oc1c(C=NCc2ccccc2)[nH]c2ccc(Br)c(Cl)c12	none (no result: HCMV UL50-53 inh)
Cc1ccc(C2=NN(C(=O)CN3CCC(C)CC3)C(c3ccco3)C2)cc1 (centres undefined)	none
O=c1[nH]nc(SCc2cccc3ccccc23)c(=O)[nH]1	GIV Gai3 FP 85
O=c1[nH]nc(SCc2ccccc2)c(=O)[nH]1	none
CC(=O)OCc1c(C)ccc(C2C(C#N)=C(N)OC(N)=C2C#N)c1C	GIV Gai3 FP -1.1 (no result: HCMV UL50-53 inh)
CCOC(=O)C1=C(C)OC(N)=C(C#N)C1c1ccc(O)cc1 (centres undefined)	none
CCCOc1ccc(C2CC(=O)Nc3c2c(C)nn3-c2ccc3nnc(C)n3n2)cc1OCC (centres undefined)	none (no result: HCMV UL50-53 inh)
CCCCOc1ccc(C2CC(=O)Nc3c2c(C)nn3-c2ccc3nnc(C)n3n2)cc1OCC (centres undefined)	GIV Gai3 FP 75 (no result: HCMV UL50-53 inh)
COc1ccc2cc3c(nc2c1)N(S(=O)(=O)c1ccccc1)CC3	none
CCOC(=O)C1=C(C)N=c2s/c(=C\c3ccc(O)c(Br)c3)c(=O)n2C1c1ccc(OC)c(OC)c1 (centres undefined)	GIV Gai3 FP 71
CCOC(=O)C1=C(C)N=c2s/c(=C\c3ccc(O)c(Br)c3)c(=O)n2C1c1ccc(OC)cc1 (centres undefined)	none
O=C(CSc1ncnc2nc(N3CCSCC3)sc12)NC1CCCC1	none
Cc1ccc(C(=O)OCC(=O)N2CCCC2)cc1NC(=O)c1ccco1	none (no result: GIV Gai3 FP)
N#CCc1c(C#N)c(N)nc(Nc2ccccc2)c1C#N	HCMV UL50-53 inh 72 (no result: GIV Gai3 FP)
CSc1nc(-c2ccccc2)nc(Nc2ccccc2)c1C#N	none
COc1cccc(-c2nn(-c3cc(C(F)(F)F)ccn3)c(=O)o2)c1	none
CCc1ccc(C2(c3ccc(CC)cc3)SC3(SC(C(C)=O)=NN3c3cccc(Cl)c3C)c3ccccc32)cc1 (centres undefined)	none (no result: HCMV UL50-53 inh)
Cc1cc(C)cc(NC(=O)c2sc3nc(-c4cc5ccccc5oc4=O)[nH]c(=O)c3c2C)c1	none
Cc1cccc(NC(=O)c2sc3nc(-c4cc5ccc(O)cc5oc4=O)[nH]c(=O)c3c2C)c1	GIV Gai3 FP -66
O[N+]1=CC=CCC1=S.On1ccccc1=S.[Zn]	HCMV UL50-53 inh 93 (no result: GIV Gai3 FP)
CCS(=O)(=O)N(C)c1ccc(C(N)=O)cc1	none
O=C(NCC1CCCO1)c1cc(-c2ccccc2)c(N2CCCCC2)s1 (centres undefined)	HCMV UL50-53 inh 35
O=C(NCC1CCCO1)c1cc2c(s1)-c1ccccc1OC2 (centres undefined)	none (no result: HCMV UL50-53 inh)
CC1CCN(CC(=O)Nc2sccc2C#N)CC1	none (no result: GIV Gai3 FP)
CCOC(=O)C1CCCN(C(=O)Cn2c(=O)c3ccccc3n3c(=S)sc(-c4ccc(Cl)cc4)c23)C1 (centres undefined)	none
CCOC(=O)C1CCCN(C(=O)Cn2c(=O)c3ccccc3n3c(=S)sc(-c4cccc(F)c4)c23)C1 (centres undefined)	GIV Gai3 FP 77
Cc1cccn2c(=O)c(/C=C3\SC(=S)N(Cc4ccccc4)C3=O)c(NCc3ccco3)nc12	none (no result: HCMV UL50-53 inh)
C=CCNc1nc2c(C)cccn2c(=O)c1/C=C1\SC(=S)NC1=O	GIV Gai3 FP -42 (no result: HCMV UL50-53 inh)
O=C1Nc2ccccc2/C1=C/c1ccccc1	none (no result: HCMV UL50-53 inh)
O=C1/C(=C/c2ccccc2)Nc2ccccc21	GIV Gai3 FP -102
CC(C)(C)NC(=O)C(C(=O)c1ccccc1)n1ccccc1=O (centres undefined)	none (no result: GIV Gai3 FP)
Nc1c(C(=O)Nc2ccc(F)c(F)c2)sc2nc(-c3ccncc3)ccc12	none
Cc1ccc(NC(=O)c2sc3nc(-c4ccncc4)ccc3c2N)cc1	GIV Gai3 FP -53
COCCOC(=O)c1sc(C)c(C(=O)OC)c1N	none (no result: GIV Gai3 FP)
COc1cc(/C=c2\sc3nc4ccccc4n3c2=O)ccc1OCc1ccccc1F	none (no result: HCMV UL50-53 inh)
CS(=O)CCNC(=O)Nc1ccc(Cl)c(Cl)c1 (centres undefined)	none (no result: HCMV UL50-53 inh)
CNC(=O)CNC(=O)Nc1ccc(Cl)c(Cl)c1	HCMV UL50-53 inh 44 (no result: GIV Gai3 FP)
CCOc1ccc(C(=O)c2cccs2)cc1	none
CCOc1ccc(C(=O)c2[nH]c(=O)c3ccccc3c2O)cc1	HCMV UL50-53 inh 61
OC(c1ccccc1)(c1ccccc1)C1CCN(C(=S)NCc2ccco2)CC1	none
O=c1cc(-c2ccccc2)nc(-c2ccccc2)o1	none
CN(C)c1ccc(-c2nc(-c3cccc(I)c3)cc(=O)o2)cc1	GIV Gai3 FP -18 (no result: HCMV UL50-53 inh)
N#Cc1c(F)cccc1N1CCN(c2ccc(O)cc2)CC1	none (no result: GIV Gai3 FP)
Cc1ccc2nc(Sc3ccccc3)c(/C=C3\SC(=S)N(C)C3=O)c(=O)n2c1	GIV Gai3 FP -36 (no result: HCMV UL50-53 inh)
CNc1nc2ccccn2c(=O)c1/C=C1\SC(=S)N(C)C1=O	none (no result: HCMV UL50-53 inh)
COCCOc1ccc(C(F)(F)F)cc1NC(=O)c1ccno1	none (no result: GIV Gai3 FP)
O=C(NC1CCCC1)C1CCN(c2ccc(-c3ccccc3)nn2)CC1	none
O=C(NC1CCN(Cc2ccccc2)CC1)C1CCN(c2ccc(-c3ccccc3)nn2)CC1	HCMV UL50-53 inh 29
CS(=O)(=O)N1CCC(N2CCOCC2)CC1	none (no result: HCMV UL50-53 inh)
O=C(CCn1cnc2cc(-c3noc(Cc4ccccc4Br)n3)ccc21)N1CCCC1	none (no result: HCMV UL50-53 inh)
CCOc1ccc(NS(=O)(=O)c2ccc3nc(-c4ccccc4)[nH]c3c2)cc1	none
CCOc1ccc(-c2nc3ccc(-c4nc5ccc(N6CCN(C)CC6)cc5[nH]4)cc3[nH]2)cc1	HCMV UL50-53 inh 75 (no result: GIV Gai3 FP)
Nc1c(C(=O)Nc2ccc(F)cc2)sc2nc(-c3cccs3)cc(C(F)(F)F)c12	GIV Gai3 FP -12
COc1ccc(NC(=O)c2sc3nc(-c4ccc(OC)cc4)cc(C(F)(F)F)c3c2N)cc1	none
COc1cccc2c1C(=O)c1c(O)c3c(c(O)c1C2=O)C[C@@](O)(C(=O)CO)CC3O[C@H]1CC(N)C(O)C(C)O1 (some centres undefined)	none (no result: GIV Gai3 FP)
COc1cccc2c1C(=O)c1c(O)c3c(c(O)c1C2=O)C[C@@](O)(C(C)=O)CC3O[C@H]1CC(N)C(O)C(C)O1 (some centres undefined)	none (no result: GIV Gai3 FP)
